Reference: PMC12163822, “Synthesis and Pharmacological Characterization of a Novel Cannabinoid Receptor 1 Antagonist” (ACS Omega, 2025)

The chains behind the UniProt entries cited, without tags or fusion partners.
UniProt P47746, whole entry: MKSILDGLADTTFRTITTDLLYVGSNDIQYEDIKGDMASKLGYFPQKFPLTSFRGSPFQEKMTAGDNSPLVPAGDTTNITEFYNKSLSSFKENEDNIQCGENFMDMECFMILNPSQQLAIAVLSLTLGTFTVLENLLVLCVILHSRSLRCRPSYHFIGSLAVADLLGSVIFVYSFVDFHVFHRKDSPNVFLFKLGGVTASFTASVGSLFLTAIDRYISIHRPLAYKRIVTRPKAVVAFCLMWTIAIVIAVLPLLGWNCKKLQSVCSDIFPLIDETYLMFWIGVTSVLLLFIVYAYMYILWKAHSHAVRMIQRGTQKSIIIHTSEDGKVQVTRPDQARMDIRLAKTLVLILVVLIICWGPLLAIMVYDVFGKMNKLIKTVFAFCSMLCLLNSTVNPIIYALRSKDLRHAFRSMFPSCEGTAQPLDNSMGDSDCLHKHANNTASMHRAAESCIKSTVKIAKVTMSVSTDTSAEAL
UniProt P20272, whole entry: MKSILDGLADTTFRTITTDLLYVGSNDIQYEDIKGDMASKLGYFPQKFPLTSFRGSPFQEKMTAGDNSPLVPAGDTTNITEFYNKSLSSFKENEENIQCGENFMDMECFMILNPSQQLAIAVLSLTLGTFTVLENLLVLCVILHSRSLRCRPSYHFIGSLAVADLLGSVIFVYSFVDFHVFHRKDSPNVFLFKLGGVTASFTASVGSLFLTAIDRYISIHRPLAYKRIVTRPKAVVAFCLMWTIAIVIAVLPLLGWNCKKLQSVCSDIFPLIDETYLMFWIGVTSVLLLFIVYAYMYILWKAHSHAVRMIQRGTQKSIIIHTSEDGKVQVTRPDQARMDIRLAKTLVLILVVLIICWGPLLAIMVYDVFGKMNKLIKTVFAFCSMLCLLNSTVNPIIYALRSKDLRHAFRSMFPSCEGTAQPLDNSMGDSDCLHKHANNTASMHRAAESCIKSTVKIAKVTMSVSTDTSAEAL

Legend:
[1] = molecular target: T1, CB1 receptor (Mus musculus, UniProt P47746); experiment: Functional [35S]GTPγS autoradiography in mouse brain slices; assay type: biochemical, Swiss mice; conditions: compound alone 10 µM
T1 construct: fresh frozen sections from brain samples from wild-type; from tissue; host or cells: Swiss mouse brain sections
Protocol: (§1) To perform functional autoradiography of cannabinoid receptors, fresh frozen sections from brain samples from wild-type Sprague–Dawley rats (n = 5) and Swiss mice (n = 5) were used to test the newly synthesized compound which had shown the best affinity for cannabinoid receptors.
(§2) All brain sections were air-dried for 30 min and then immersed in Coplin jars for preincubation (4 times, 15 min each time) in an HEPES-based buffer (50 mM HEPES, 100 mM NaCl, 3 mM MgCl2, 0.2 mM EGTA, 0.5% BSA; pH 7.4) at 30 °C. The objective of this preincubation was the removal of endogenous ligands. Slices were then incubated for 2 h at 30 °C in the same buffer supplemented with 2 mM GDP, 1 mM DTT, and 0.04 nM [^35S]-GTPγS and the target compound (10 μM) alone, as well as the target compound and CP55,940 (10 μM) together. Basal [^35S]-GTPγS binding was defined in the absence of the agonists in two consecutive slices. To define nonspecific binding, 10 μM of unlabeled GTPγS was added to the incubation in another section. Following incubation, slices were twice washed in an ice-cold 50 mM HEPES buffer (pH 7.4), dried, and exposed for 48 h to β-radiation sensitive film with a set of [^14C] standards calibrated for [^35S]. Calibrated films were scanned and quantified using Fiji software (Fiji, Bethesda, […], USA). The signal corresponding to nonspecific binding was previously subtracted from the basal and agonist-stimulated binding. Then, the data was expressed as the percentage of stimulation over basal following the formula: ([^35S]-GTPγS agonist-stimulated binding) × 100/([^35S]-GTPγS basal binding)-100.

[2] = molecular target: CB1 receptor (Rattus norvegicus, UniProt P20272); experiment: Functional [35S]GTPγS autoradiography in rat brain slices; assay type: biochemical, Sprague-Dawley rat; design: fresh frozen sections from brain samples from wild-type; from tissue; host or cells: Sprague-Dawley rat brain sections; conditions: compound alone 10 µM
Protocol: as §1, §2

[3] = nucleus basalis magnocellularis

(−)-cis-3-[2-Hydroxy-4-(1,1-dimethylheptyl)phenyl]-trans-4-(3-hydroxypropyl) cyclohexanol [CP55,940, reference compound]
[35S]GTPγS binding, Stimulation (% over basal) ([1]; amygdala): 88 ± 60 % over basal | [35S]GTPγS binding, Stimulation (% over basal) ([1]; cerebellum (gray matter)): 128 ± 59 % over basal | [35S]GTPγS binding, Stimulation (% over basal) ([1]; cortex): 40 ± 31 % over basal | [35S]GTPγS binding, Stimulation (% over basal) ([1]; globus pallidus): 412 ± 189 % over basal | [35S]GTPγS binding, Stimulation (% over basal) ([1]; hippocampus dorsal): 77 ± 23 % over basal | [35S]GTPγS binding, Stimulation (% over basal) [1, 3]: 91 ± 68 % over basal | [35S]GTPγS binding, Stimulation (% over basal) ([1]; striatum): 56 ± 36 % over basal | [35S]GTPγS binding, Stimulation (% over basal) ([1]; substantia nigra): 747 ± 164 % over basal | [35S]GTPγS binding, Stimulation (% over basal) ([2]; amygdala): 49 ± 12 % over basal | [35S]GTPγS binding, Stimulation (% over basal) ([2]; cerebellum (gray matter)): 68 ± 77 % over basal | [35S]GTPγS binding, Stimulation (% over basal) ([2]; cortex): 40 ± 25 % over basal | [35S]GTPγS binding, Stimulation (% over basal) ([2]; globus pallidus): 833 ± 352 % over basal | [35S]GTPγS binding, Stimulation (% over basal) ([2]; hippocampus dorsal): 31 ± 9 % over basal | [35S]GTPγS binding, Stimulation (% over basal) [2, 3]: 164 ± 35 % over basal | [35S]GTPγS binding, Stimulation (% over basal) ([2]; striatum): 83 ± 81 % over basal | [35S]GTPγS binding, Stimulation (% over basal) ([2]; substantia nigra): 314 ± 222 % over basal
